Values quoted from earlier work as cited in PMC3127977, “No relevant cardiac, pharmacokinetic or safety interactions between roflumilast and inhaled formoterol in healthy subjects: an open-label, randomised, actively controlled study” (BMC Clinical Pharmacology, 2011).

Conditions: cytochrome P450 enzyme inducer co-administered with roflumilast; cited from earlier work

## CO[C@H]1/C=C/O[C@@]2(C)Oc3c(C)c(O)c4c(O)c(c(/C=N/N5CCN(C)CC5)c(O)c4c3C2=O)NC(=O)/C(C)=C\C=C\[C@H](C)[C@H](O)[C@@H](C)[C@@H](O)[C@@H](C)[C@H](OC(C)=O)[C@@H]1C [rifampicin]
  reduction in tPDE4i: 58%
